Experimental data as given in PMC8624105 (Viruses, 2021).

How the values were obtained:
Assay in all cases: holdup assay
Type in all cases: binding, human
[1] = system: SHANK3
[2] = system: PARD3
[3] = system: MAGI1 PDZ5; details: PDZ about 4 μM; sd not given
[4] = system: PTPN4 PDZ1; details: PDZ about 4 μM; two independent experiments
[5] = system: DLG2 PDZ2; details: PDZ about 4 μM; two independent experiments
[6] = system: FRMPD4 PDZ1; details: PDZ about 4 μM; two independent experiments
[7] = system: NHERF4 PDZ1; details: PDZ about 4 μM; two independent experiments
[8] = system: MPDZ PDZ9; details: PDZ about 4 μM; two independent experiments
[9] = system: CARD14 PDZ1; details: PDZ about 4 μM; two independent experiments
[10] = system: PDZD11 PDZ1; details: PDZ about 4 μM; two independent experiments
[11] = system: PPP1R9B PDZ1; details: PDZ about 4 μM; two independent experiments
[12] = system: PDZRN3 PDZ2; details: PDZ about 4 μM; sd not given
[13] = system: InaDl PDZ9; details: PDZ about 4 μM; two independent experiments
[14] = system: SNTG1 PDZ1; details: PDZ about 4 μM; two independent experiments
[15] = system: SDCBP2 PDZ2; details: PDZ about 4 μM; two independent experiments
[16] = system: NHERF3 PDZ3; details: PDZ about 4 μM; two independent experiments
[17] = system: MLLT4 PDZ1; details: PDZ about 4 μM; two independent experiments
[18] = system: SHROOM4 PDZ1; details: PDZ about 4 μM; two independent experiments
[19] = system: NHERF4 PDZ3; details: PDZ about 4 μM; two independent experiments
[20] = system: LNX1 PDZ4; details: PDZ about 4 μM; two independent experiments
[21] = system: PDZD9 PDZ1; details: PDZ about 4 μM; two independent experiments
[22] = system: PDZD2 PDZ2; details: PDZ about 4 μM; two independent experiments
[23] = system: PDZD7 PDZ2; details: PDZ about 4 μM; two independent experiments
[24] = system: GORASP2 PDZ1; details: PDZ about 4 μM; two independent experiments
[25] = system: MPDZ PDZ13; details: PDZ about 4 μM; two independent experiments
[26] = system: LIN7A PDZ1; details: PDZ about 4 μM; two independent experiments
[27] = system: PDZD8 PDZ1; details: PDZ about 4 μM; two independent experiments
[28] = system: PREX1 PDZ2; details: PDZ about 4 μM; two independent experiments
[29] = system: PCLO PDZ1; details: PDZ about 4 μM; two independent experiments
[30] = system: PDLIM7 PDZ1; details: PDZ about 4 μM; two independent experiments
[31] = system: SYNPO2L PDZ1; details: PDZ about 4 μM; two independent experiments
[32] = system: SYNP2 PDZ1; details: PDZ about 4 μM; two independent experiments
[33] = system: HTRA4 PDZ1; details: PDZ about 4 μM; two independent experiments
[34] = system: IL16 PDZ1; details: PDZ about 4 μM; two independent experiments
[35] = system: GORASP1 PDZ1; details: PDZ about 4 μM; two independent experiments
[36] = system: InaDl PDZ3; details: PDZ about 4 μM; two independent experiments
[37] = system: RAPGEF6 PDZ1; details: PDZ about 4 μM; two independent experiments
[38] = system: LNX1 PDZ1; details: PDZ about 4 μM; two independent experiments
[39] = system: GRIP1 PDZ5; details: PDZ about 4 μM; two independent experiments
[40] = system: LNX2 PDZ1; details: PDZ about 4 μM; two independent experiments
[41] = system: SDCBP PDZ1; details: PDZ about 4 μM; two independent experiments
[42] = system: GRIP2 PDZ4; details: PDZ about 4 μM; two independent experiments
[43] = system: GOPC PDZ1; details: PDZ about 4 μM; two independent experiments
[44] = system: IL16 PDZ2; details: PDZ about 4 μM; two independent experiments
[45] = system: APBA3 PDZ2; details: PDZ about 4 μM; sd not given
[46] = system: GRIP1 PDZ4; details: PDZ about 4 μM; two independent experiments
[47] = system: DLG5 PDZ1; details: PDZ about 4 μM; sd not given
[48] = system: TJP3 PDZ1; details: PDZ about 4 μM; two independent experiments
[49] = system: MPP2 PDZ1; details: PDZ about 4 μM; two independent experiments
[50] = system: GRIP1 PDZ6; details: PDZ about 4 μM; two independent experiments
[51] = system: DLG4 PDZ1; details: PDZ about 4 μM; sd not given
[52] = PDZ about 4 μM, two independent experiments

In the case of “Biotin-(PEG3)-GFQNTDDVQTSF [ACE2 PBM peptide]”, the “BI (binding intensity)” value [1, 52] is reported as 0.75, the Kd estimated ([1]; converted from BI, PDZ typically 4 μM, immobilized peptide 21 μM) is reported as “micromolar range” and the Kd ([1]; converted from BI, PDZ typically 4 μM, immobilized peptide 21 μM, read-out: Kd estimated) is reported as 6.08 µM. The “BI (binding intensity)” value [2, 52] was 0.28, the Kd ([2]; converted from BI, PDZ typically 4 μM, immobilized peptide 21 μM, listed as PBM peptide from ACE2 protein, read-out: Kd estimated) was 51.1 µM and the “BI (binding intensity)” value [3] was 0.16. The “BI (binding intensity)” value [4] was 0.13, the “BI (binding intensity)” value [5] was 0.13 and the “BI (binding intensity)” value [6] was 0.11. For the same substance, the “BI (binding intensity)” value [7] was 0.05, the “BI (binding intensity)” value [8] was 0.03 and the “BI (binding intensity)” value [9] was 0.03. For the same substance, the “BI (binding intensity)” value [10] was 0.01, the “BI (binding intensity)” value [11] was 0.01 and the “BI (binding intensity)” value [12] was 0.01. The “BI (binding intensity)” value [13] was 0.01, the “BI (binding intensity)” value [14] was -0.01 and the “BI (binding intensity)” value [15] was -0.01. For the same substance, the “BI (binding intensity)” value [16] was -0.01, the “BI (binding intensity)” value [17] was -0.01 and the “BI (binding intensity)” value [18] was -0.02. For the same substance, the “BI (binding intensity)” value [19] was -0.02, the “BI (binding intensity)” value [20] was -0.02 and the “BI (binding intensity)” value [21] was -0.02. For the same substance, the “BI (binding intensity)” value [22] was -0.03, the “BI (binding intensity)” value [23] was -0.03 and the “BI (binding intensity)” value [24] was -0.03. For the same substance, the “BI (binding intensity)” value [25] was -0.03, the “BI (binding intensity)” value [26] was -0.04 and the “BI (binding intensity)” value [27] was -0.04. The “BI (binding intensity)” value [28] was -0.05, the “BI (binding intensity)” value [29] was -0.05 and the “BI (binding intensity)” value [30] was -0.05. For the same substance, the “BI (binding intensity)” value [31] was -0.05, the “BI (binding intensity)” value [32] was -0.05 and the “BI (binding intensity)” value [33] was -0.05. For the same substance, the “BI (binding intensity)” value [34] was -0.06, the “BI (binding intensity)” value [35] was -0.06 and the “BI (binding intensity)” value [36] was -0.06. For the same substance, the “BI (binding intensity)” value [37] was -0.06, the “BI (binding intensity)” value [38] was -0.07 and the “BI (binding intensity)” value [39] was -0.07. For the same substance, the “BI (binding intensity)” value [40] was -0.07, the “BI (binding intensity)” value [41] was -0.08 and the “BI (binding intensity)” value [42] was -0.08. For the same substance, the “BI (binding intensity)” value [43] was -0.09, the “BI (binding intensity)” value [44] was -0.09 and the “BI (binding intensity)” value [45] was -0.10. The “BI (binding intensity)” value [46] was -0.10, the “BI (binding intensity)” value [47] was -0.10 and the “BI (binding intensity)” value [48] was -0.10. For the same substance, the “BI (binding intensity)” value [49] was -0.12, the “BI (binding intensity)” value [50] was -0.27 and the “BI (binding intensity)” value [51] was -0.50.
